Assay results reported in US10618875B2 (priority 2017, dated 2020).

Key:
[1] = Formation of DNP from Compound B by human liver microsomes; conditions: 2 μM test compound
[2] = system: Zucker diabetic fatty (ZDF) rats; test: Zucker diabetic fatty (ZDF) rats
[3] = system: mice with induced fatty liver disease; test: Oral glucose tolerance test in MCD-fed mice; conditions: 5, 25, 100 mg/kg, five weeks of treatment; p<0.05 for 25 and 100 mg/kg, p<0.01 for 5 mg/kg
[4] = system: MCD diet-induced NASH mouse liver; test: MCD diet induced NASH mouse model (liver lipid droplets, cytokines)
NCI-60 cell lines = test: NCI-60 cancer cell line panel growth, one-dose; type: cell-based, human; conditions: 10 μM, 48 h, SRB
[5] = system: mice with induced fatty liver disease; test: Serum ALT, AST and ALP liver enzymes after Compound A in MCD-fed mice; conditions: MCD mice, 5, 25, 100 mpk oral gavage, 4 weeks; significant at 5 and 100 mpk
[6] = system: Diet Induced Animal Model of Non-alcoholic fatty liver Disease (DIAMOND) mice; test: Diet induced animal model of non-alcoholic fatty liver disease (DIAMOND)
[7] = 7-day repeat dose mouse toxicity study; conditions: orally, levels as high as 500 mg/kg
[8] = system: rats fed a high fat diet (HFD); test: Rat NAFLD model induced by HFD
[9] = Formation of DNP from Compound A by liver microsomes of different species; conditions: 2 μM Compound A, 0.5 mg/mL microsomes, with or without 1 mM NADPH
[10] = system: Hep3B-luc human liver tumor; test: Hep3B-luc human liver cancer murine orthotopic model; type: in vivo, BALB/c nude mice; conditions: Sorafenib Tosylate 80 mg/kg + 25, 100, 200 or 300 mg/kg Compound A, 28 days
[11] = PO QD, between the study groups
[12] = 5 mpk, MCD diet-induced NASH mice
[13] = 5 mg/kg daily for 8 weeks, serum
[14] = DIAMOND mice, high dose (FIG. 33)
[15] = HFD rats, 0.1, 0.5, 5 mg/kg PO QD x 14 d, compared to vehicle control
[16] = HFD rats, all treatment doses, PO QD x 14 d

Question: Which “Formation Percentage” value ([1]; With NADPH, 0 min) does the source give for `Cn1c([N+](=O)[O-])cnc1COc1ccc([N+](=O)[O-])cc1[N+](=O)[O-]` here?
Answer: The value was 1.56%.

Question: What about the “Formation of DNP” value ([1]; With NADPH, 0 min) of the same compound?
Answer: The value was 0.031 µM.

Question: What about the “Formation Percentage” value ([1]; With NADPH, 15 min) of the same compound?
Answer: Its value is 1.90%.

Question: What about the “Formation of DNP” value ([1]; With NADPH, 15 min) of the same compound?
Answer: Its value is 0.038 µM.

Question: And the “Formation Percentage” value ([1]; With NADPH, 30 min)?
Answer: The value was 1.26%.

Question: And the “Formation of DNP” value ([1]; With NADPH, 30 min)?
Answer: Its value is 0.025 µM.

Question: And the “Formation Percentage” value ([1]; With NADPH, 45 min)?
Answer: Its value is 1.13%.

Question: And the “Formation of DNP” value ([1]; With NADPH, 45 min)?
Answer: Its value is 0.023 µM.

Question: And the “Formation Percentage” value ([1]; With NADPH, 60 min)?
Answer: The value was 0.91%.

Question: And the “Formation of DNP” value ([1]; With NADPH, 60 min)?
Answer: The value was 0.018 µM.

Question: And the “Formation Percentage” value ([1]; Without NADPH, 0 min)?
Answer: Its value is 0.83%.

Question: What about the “Formation of DNP” value ([1]; Without NADPH, 0 min) of the same compound?
Answer: Its value is 0.017 µM.

Question: And the “Formation Percentage” value ([1]; Without NADPH, 15 min)?
Answer: Its value is 0.75%.

Question: And the “Formation of DNP” value ([1]; Without NADPH, 15 min)?
Answer: The value was 0.015 µM.

Question: And the “Formation Percentage” value ([1]; Without NADPH, 30 min)?
Answer: Its value is 0.72%.

Question: What about the “Formation of DNP” value ([1]; Without NADPH, 30 min) of the same compound?
Answer: Its value is 0.014 µM.

Question: And the “Formation Percentage” value ([1]; Without NADPH, 45 min)?
Answer: Its value is 0.69%.

Question: What about the “Formation of DNP” value ([1]; Without NADPH, 45 min) of the same compound?
Answer: Its value is 0.014 µM.

Question: And the “Formation Percentage” value ([1]; Without NADPH, 60 min)?
Answer: The value was 0.63%.

Question: What about the “Formation of DNP” value ([1]; Without NADPH, 60 min) of the same compound?
Answer: The value was 0.013 µM.

Question: For `Cn1c(COc2ccc([N+](=O)[O-])cc2[N+](=O)[O-])cnc1[N+](=O)[O-]`, which animals found dead (1500 mg/kg oral gavage, n=4, after 12 hours) is on record?
Answer: Its animals found dead is “one of the animals”.

Question: And the toxicity (Compound A to mice compared to administering DNP directly)?
Answer: The toxicity was “sharply reduced”.

Question: And the Tmax (oral Compound A versus DNP, mice)?
Answer: Its Tmax is “delayed”.

Question: What about the “Compound A detected in plasma” value (oral gavage 1-1500 mg/kg, mouse plasma) of the same compound?
Answer: Its value is “detected in plasma only in small amounts in the highest dosed animals”.

Question: And the “conversion of Compound A in vivo (PK analysis)” value (oral gavage, mouse plasma)?
Answer: Its value is “hydrolyzed to DNP residue”.

Question: And the “NEFA (Free Fatty Acid, FFA) level” value ([2]; 0.1 mg/kg)?
Answer: Its value is “trended lower”.

Question: What about the “liver TG reduction” value ([2]; 5.0 mg/kg, p<0.05 compared with vehicle group) of the same compound?
Answer: The value was “did reach statistical significance”.

Question: What about the body weight [2, 11] of the same compound?
Answer: The body weight was “no significant changes”.

Question: And the food consumption [2, 11]?
Answer: Its food consumption is “no significant changes”.

Question: And the body weight ([2]; all dosing groups after day 36 compared to vehicle)?
Answer: The body weight was “trend towards lower body weights”.

Question: And the “blood TG (triglycerides) level” value ([2]; all study groups)?
Answer: Its value is “lower than vehicle control”.

Question: What about the “liver TG” value ([2]; all study groups) of the same compound?
Answer: The value was “also lower”.

Question: And the blood insulin level ([2]; all treatment groups, Day 57, ELISA)?
Answer: Its blood insulin level is “observed to be lower”.

Question: And the food consumption ([2]; highest Compound A dosing group (5.0 mg/kg))?
Answer: The food consumption was “trend towards higher food consumption”.

Question: What about the “NEFA (Free Fatty Acid, FFA) level” value ([2]; two groups with the highest levels of Compound A (0.5 and 5.0 mg/kg), vs vehicle) of the same compound?
Answer: The value was “significantly lower”.

Question: What about the “blood glucose level 120 minutes after glucose challenge (OGTT)” value [3] of the same compound?
Answer: The value was “statistically significant”.

Question: And the “lipid droplets in liver” value ([4]; 5 mpk, 6 weeks of treatment)?
Answer: The value was “sharply reduced”.

Question: And the “liver IL-1β” value [4, 12]?
Answer: Its value is “decreased”.

Question: And the “liver TNFα” value [4, 12]?
Answer: The value was “decreased”.

Question: What about the steatohepatitis in liver ([4]; MCD diet-induced NASH mouse liver) of the same compound?
Answer: Its steatohepatitis in liver is “reduces”.

Question: And the “delta of growth percent across all cell lines tested” value (NCI-60 cell lines)?
Answer: The value was 26.47%.

Question: And the “mean growth percent of control across the NCI-60” value (NCI-60 cell lines)?
Answer: Its value is 98.63%.

Question: And the “range of growth percent across all cell lines” value (NCI-60 cell lines)?
Answer: Its value is 40.14%.

Question: And the ALT level [5]?
Answer: The ALT level was “reduced in a dose-dependent manner”.

Question: And the AST level [5]?
Answer: Its AST level is “reduced in a dose-dependent manner”.

Question: And the liver weight ([6]; 5 mg/kg daily for 8 weeks)?
Answer: Its liver weight is “statistically significant lower”.

Question: And the total cholesterol ([6]; 5 mg/kg daily for 8 weeks)?
Answer: The total cholesterol was “statistically significant lower”.

Question: What about the ALP [6, 13] of the same compound?
Answer: The ALP was “statistically significant lower”.

Question: What about the ALT [6, 13] of the same compound?
Answer: Its ALT is “statistically significant lower”.

Question: What about the ASP [6, 13] of the same compound?
Answer: Its ASP is “statistically significant lower”.

Question: And the body weight ([6]; 5 mg/kg daily for 8 weeks, week 20)?
Answer: Its body weight is “significant body weight reduction”.

Question: What about the lobular inflammation ([6]; DIAMOND mice, 8 weeks of treatment) of the same compound?
Answer: Its lobular inflammation is “significantly reduced”.

Question: What about the NAS [6, 14] of the same compound?
Answer: Its NAS is “significantly lowered”.

Question: What about the SAF activity score [6, 14] of the same compound?
Answer: The SAF activity score was “significantly lowered”.

Question: And the “progression to NASH” value ([6]; DIAMOND mice, all controls progressed to NASH)?
Answer: The value was “only one mouse on compound A progressed to NASH”.

Question: And the “kidney dysfunction as measured by creatinine in the blood” value [7]?
Answer: The value was “did not cause kidney dysfunction”.

Question: What about the “serum FFA level” value [8, 15] of the same compound?
Answer: Its value is “trended lower in a dose dependent manner”.

Question: What about the “serum TG level” value [8, 15] of the same compound?
Answer: Its value is “trended lower in a dose dependent manner”.

Question: What about the “serum FFA level” value ([8]; HFD rats, after seven days of dosing, compared to vehicle) of the same compound?
Answer: Its value is “significant differences”.

Question: What about the “liver FFA level” value [8, 16] of the same compound?
Answer: Its value is “trended lower”.

Question: What about the “liver HDL-C level” value [8, 16] of the same compound?
Answer: The value was “trended lower”.

Question: What about the “liver LDL-C level” value [8, 16] of the same compound?
Answer: The value was “trended lower”.

Question: What about the “liver TCHO level” value [8, 16] of the same compound?
Answer: The value was “trended lower”.

Question: And the “liver TG level” value [8, 16]?
Answer: The value was “trended lower”.

Question: And the liver ceramide level [8, 16]?
Answer: Its liver ceramide level is “trended lower”.

Question: And the “reduction of liver ceramide” value ([8]; HFD rats, highest dosed group (5 mg/kg))?
Answer: The value was “reached significance”.

Question: And the “liver FFA level” value ([8]; HFD rats, two highest doses of Compound A (0.5 and 5 mg/kg))?
Answer: The value was “significant reduction”.

Question: And the “formation of DNP in liver microsomes” value [9]?
Answer: Its value is “requires NADPH”.

Question: What about the “effect of Sorafenib on BLI in combination with Compound A” value [10] of the same compound?
Answer: Its value is “not augmented”.
